Only a part is listed here, and it is no random draw. Activity calls are given as the source filed them.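 How the source made its calls: active means inhibition above the mean inhibition across every tested compound plus 3 SD (cut at about 22% in these data); inactive means the rest.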
biological target: Perilipin-5 (Homo sapiens) + 1-acylglycerol-3-phosphate O-acyltransferase ABHD5 (Homo sapiens) (UniProt Q00G26+Q8WTS1); assay: ABHD5-PLIN5 interaction inhibitors, primary screen, cell lysate, split luciferase complementation, luminescence (AID 602281);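 further: 0% = DMSO only wells and the 100% control is not disclosed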; conditions: Split G. princeps luciferase complementation, 4 h, at 4 µM, active compounds read high

Amino acid sequences for entries named in this document (tags omitted). A change or cut given only in a name is not applied to a line headed by its entry.
UniProt Q00G26: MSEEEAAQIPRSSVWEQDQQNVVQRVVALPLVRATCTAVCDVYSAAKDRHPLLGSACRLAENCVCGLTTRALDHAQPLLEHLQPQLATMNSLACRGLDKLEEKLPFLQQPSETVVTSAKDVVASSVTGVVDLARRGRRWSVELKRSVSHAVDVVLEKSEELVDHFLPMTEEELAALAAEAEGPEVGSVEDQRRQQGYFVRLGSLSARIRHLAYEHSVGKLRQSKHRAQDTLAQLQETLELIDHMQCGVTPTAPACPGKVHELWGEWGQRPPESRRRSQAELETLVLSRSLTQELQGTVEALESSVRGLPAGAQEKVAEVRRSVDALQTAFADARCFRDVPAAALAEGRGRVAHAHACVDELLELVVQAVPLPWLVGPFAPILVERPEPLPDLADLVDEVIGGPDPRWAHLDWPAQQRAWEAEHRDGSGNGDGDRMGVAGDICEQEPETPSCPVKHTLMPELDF
UniProt Q8WTS1: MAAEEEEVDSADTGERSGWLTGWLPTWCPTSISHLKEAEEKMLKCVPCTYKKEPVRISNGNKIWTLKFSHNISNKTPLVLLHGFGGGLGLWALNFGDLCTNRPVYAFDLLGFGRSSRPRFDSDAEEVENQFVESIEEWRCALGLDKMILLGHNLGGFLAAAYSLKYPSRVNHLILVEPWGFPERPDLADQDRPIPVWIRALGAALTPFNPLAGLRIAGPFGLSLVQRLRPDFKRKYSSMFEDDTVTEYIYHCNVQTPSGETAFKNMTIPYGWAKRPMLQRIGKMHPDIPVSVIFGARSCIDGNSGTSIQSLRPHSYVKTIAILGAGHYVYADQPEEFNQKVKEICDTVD

| SMILES | inhibition |
| --- | --- |
| CN(C)C(=O)OCCc1n(C)cc[n+]1C | inactive: 1.95% |
| CC(C)=N/N=C(\N)N[N+](=O)[O-] | inactive: 4.31% |
| CC(C)c1nc(Nc2ccccc2)n(P(=O)(N(C)C)N(C)C)n1 | inactive: 1.55% |
| c1cc(-c2nn[nH]n2)ccc1-c1nn[nH]n1 | inactive: 2.77% |
| CC1CCN(C(=O)Oc2c(Cl)cc(Cl)c3cccnc23)CC1 | inactive: -0.85% |
| O=P1(N(CCCl)CCCl)OCCCS1 (stereo unspecified) | inactive: -2.42% |
| O=C(Nc1cc([As](=O)(O)O)ccc1O)c1ccccc1 | inactive: 2.84% |
| CC(C)(C)C(=O)NC(Sc1ccncn1)C(Cl)(Cl)Cl (stereo unspecified) | inactive: -1.27% |
| O=[N+]([O-])c1ncn(CCn2ncnc2[N+](=O)[O-])n1 | inactive: -3.84% |
| O=[N+]([O-])c1cccc(NC2=NCC(CBr)S2)c1 (stereo unspecified) | inactive: -1.17% |
| COC(=O)C1(C)COP(=O)(Nc2ccccc2)OC1 (stereo unspecified) | inactive: -2.07% |
| O=C(O)CNc1ccc([As](=O)(O)O)cc1 | inactive: 1.18% |
| CCCC1OP(N)(=O)OCC1CC (stereo unspecified) | inactive: 1.39% |
| O=C(O)c1ccccc1[As](=O)(O)O | inactive: 0.49% |
| CC(=O)Nc1ccc([As](=O)(O)O)cc1 | inactive: 7.74% |
| CN(C)P(=O)(N(C)C)n1c(Nc2ccccc2)nnc1-c1ccccc1 | inactive: -0.06% |
| O=P(Nc1nc2ccc(Cl)cc2s1)(c1ccccc1)c1ccccc1 | inactive: -3.81% |
| CN(C(=O)Cc1ccc(Cl)c(Cl)c1)[C@H]1CCCC[C@@H]1N1CCCC1 | inactive: -8.81% |
| Cc1ccc(NP(=O)(Oc2ccccc2F)Oc2ccccc2F)nc1 | inactive: -5.47% |
| CCOP(=O)(Nc1ccccc1)OCC | inactive: -6.3% |
| Cc1cc(SC(NC(=O)c2ccc(F)cc2)C(Cl)(Cl)Cl)ncn1 (stereo unspecified) | inactive: -7.5% |
| CCN(N=Nc1nonc1N)c1nonc1N | inactive: 3.64% |
| Nc1cccc2ccc([As](=O)(O)O)cc12 | inactive: -13.7% |
| NC(=O)c1cc([N+](=O)[O-])cc([N+](=O)[O-])c1N | inactive: 2.67% |
| Cc1ccc(N/C(=N/P(=O)(N2CCOCC2)N2CCOCC2)N2CCOCC2)cc1 | inactive: -1.94% |
| CN(C(=O)Cc1ccc(Cl)c(Cl)c1)[C@H]1CCCC[C@H]1N1CCCC1 | inactive: 9.41% |

| SMILES | inhibition |
| --- | --- |
| Cc1ccc(OP(=O)(Nc2nccs2)Oc2ccc(C)cc2)cc1 | inactive: -0.41% |
| COc1ccccc1OP(=O)(Nc1ccc(C)cn1)Oc1ccccc1OC | inactive: -6.36% |
| Clc1ccc(Cl)c(NC2=NCC(CBr)S2)c1 (stereo unspecified) | inactive: -6.52% |
| CN1CCCC(OC(=O)C(c2ccccc2)c2ccccc2)C1 (stereo unspecified) | inactive: 3.69% |
| CC(C)CC(=O)NC(Sc1ccc(Cl)cc1)C(Cl)(Cl)Cl (stereo unspecified) | inactive: -4.76% |
| Nc1cc(N)c2nonc2c1[N+](=O)[O-] | inactive: -8.75% |
| O=C(NC(Sc1ccncn1)C(Cl)(Cl)Cl)c1ccccc1 (stereo unspecified) | inactive: -9.06% |
| Oc1ccccc1CNc1ccccn1 | inactive: 3.28% |
| O=[N+]([O-])C1C(O)C(O)C([N+](=O)[O-])C(O)C1O (stereo unspecified) | inactive: -6.86% |
| CCOc1ccc(C2=NCC(CBr)S2)cc1 (stereo unspecified) | inactive: -9.91% |
| O=P1(Nc2nc3ccc(Cl)cc3s2)COc2ccccc2O1 (stereo unspecified) | inactive: -1.32% |
| CCc1cc(O)c([N+](=O)[O-])c(C)c1[N+](=O)[O-] | inactive: 1.65% |
| CC(C)(C)C(=O)NC(Sc1ccccc1)C(Cl)(Cl)Cl (stereo unspecified) | inactive: -0.67% |
| COC(=O)C1(C)COP(=O)(NCc2ccccc2)OC1 (stereo unspecified) | inactive: -5.75% |
| N#C/C(=C\c1ccc(N(CCBr)CCBr)cc1)C(N)=O | inactive: -2.8% |
| CC(=O)c1ccc(N2CC2c2ccncc2)cc1 (stereo unspecified) | inactive: -3.79% |
| C[C@H]1OP(=O)(Oc2ccccc2)C[C@@H]2O[C@@H]21 (stereo partly specified) | inactive: 6.28% |
| Cc1ccccc1CN(C)C(=O)COC(=O)C(O)(c1ccccc1)c1ccccc1 | inactive: -11.7% |
| CC(=O)Nc1ccc(Oc2c([N+](=O)[O-])cc([N+](=O)[O-])cc2[N+](=O)[O-])cc1 | inactive: 1.26% |
| CC(=O)Nc1ccc([As](=O)(O)O)c(O)c1 | inactive: 5.35% |
| O=C(NC1CCS(=O)(=O)C1)NP(=S)(Oc1ccccc1)Oc1ccccc1 (stereo unspecified) | inactive: -10.1% |
| CCNC(=S)/N=C(\N)N[N+](=O)[O-] | inactive: -7.83% |
| Cc1ccc(NP(=O)(Oc2cccc(C)c2)Oc2cccc(C)c2)nc1 | inactive: -2.86% |
| c1ccc(-c2nn[nH]n2)c(-c2nn[nH]n2)c1 | inactive: 0.11% |
| O=P1(N(CCCl)CCCl)OCCC2CCCCN21 (stereo unspecified) | inactive: -6.7% |
| CC(=O)NC(SC(=S)N(CC(C)C)CC(C)C)C(Cl)(Cl)Cl (stereo unspecified) | inactive: -2.37% |

| SMILES | inhibition |
| --- | --- |
| Cc1ccc(OP(=O)(Nc2ccccn2)Oc2ccc(C)cc2)cc1 | inactive: 0.93% |
| COC(=O)c1cc2c(s1)N=C(c1ccccc1)N(C)P2(=O)N1CCOCC1 (stereo unspecified) | inactive: -0.42% |
| CCC(=O)N1C2C3N(C(=O)CC)C1C1N(C(=O)CC)C(C(N1C(=O)CC)N3C(=O)CC)N2C(=O)CC | inactive: -0.3% |
| O=C(OC1CN2CCC1CC2)c1ccccc1 (stereo unspecified) | inactive: -7.34% |
| CN(C)C(=O)Oc1noc2ccccc12 | inactive: -5.73% |
| O=c1c2cc([N+](=O)[O-])ccc2[nH]c2c([N+](=O)[O-])cc([N+](=O)[O-])cc12 | inactive: -9.45% |
| Cc1ccccc1OP(=O)(Nc1ccccn1)Oc1ccccc1C | inactive: -1.65% |
| CC(NC(=O)COC(=O)C(O)(c1ccccc1)c1ccccc1)c1ccccc1 (stereo unspecified) | inactive: 2.92% |
| Nc1ccc(CCCCOc2ccccc2)cc1 | inactive: 0.93% |
| COc1ccc(N)c([N+](=O)[O-])c1[N+](=O)[O-] | inactive: 9.54% |
| CN(C)C1(CNC(=O)c2ccc(Cl)c(S(N)(=O)=O)c2)CCCCC1 | inactive: -0.51% |
| O=P(Nc1ccccn1)(c1ccc(Br)cc1)c1ccc(Br)cc1 | inactive: -3.58% |
| C[C@H]1OP(=O)(Oc2ccccc2)[C@H](O)[C@H](O)[C@H]1N=[N+]=[N-] (stereo partly specified) | inactive: -3.47% |
| O=P(Nc1nc2ccccc2s1)(c1ccccc1)c1ccccc1 | inactive: -8.39% |
| CC(=O)NC(SC(=S)N(C)C)C(Cl)(Cl)Cl (stereo unspecified) | inactive: 4.29% |
| O=[N+]([O-])c1ncn(CCn2cnc([N+](=O)[O-])n2)n1 | inactive: 2.29% |
| O=[N+]([O-])c1ccc(O)c(/C=N/Nc2ccc([N+](=O)[O-])cc2[N+](=O)[O-])c1 | inactive: 1.87% |
| O=[As](O)(c1ccccc1)c1ccc(O)cc1 | inactive: -1.31% |
| Nc1ccc([As](=O)(O)c2ccc([N+](=O)[O-])cc2)cc1 | inactive: 2.58% |
| C(Cc1nn[nH]n1)Cc1nn[nH]n1 | inactive: 0% |
| O=C(OC1CN2CCC1CC2)c1cccc(Cl)c1 (stereo unspecified) | inactive: -2.1% |
| O=P(Nc1nccs1)(c1ccccc1)c1ccccc1 | inactive: -3% |
| CC(C)C(=O)NC(Sc1ccccc1)C(Cl)(Cl)Cl (stereo unspecified) | inactive: -2.92% |
| c1nnnn1CCn1cnnn1 | inactive: 2.5% |

— PubChem BioAssay AID602281 (The Scripps Research Institute Molecular Screening Center, 2012)
